The results in this text go back to patent US20060009433A1, “Neuroprotective spirostenol pharmaceutical compositions” (priority 2003, published 2006).

The test system of the data set is rat PC12 neuronal cells. Conditions: MTT; 100 μM steroid.

`C[C@]12CC[C@H](O)CC1=CC[C@@H]1[C@@H]2CC[C@]2(C)C(=O)CC[C@@H]12` [DHEA, 5-androsten-3β-ol-17-one]: the “protection against 5 μM Aβ-induced cytotoxicity” value is given as “protected” and the “protection against 50 μM Aβ-induced cytotoxicity” value was “but not 50 μM”.
